In patent US6046190A, “Hydroxyethylamino sulphonamides useful as retroviral protease inhibitors” (G.D. Searle & Co., priority 1996, dated 2000) one finds IC50 data, which are given here for 1 molecule.

For the assay, the target named is T1, HIV protease (Human immunodeficiency virus type 1 group M subtype B, UniProt P04585).
T1 construct: HIV protease is diluted in the assay buffer to a final enzyme concentration of 12.3 nanomolar, based on a molecular weight of 10,780
Type of assay: biochemical. Particulars: pH 6.4. The method, then: The enzyme method is described below. […] The positive control is MVT-101 (Miller, M. et al, Science, 246, 1149 (1989)]. The assay conditions are as follows:
20 mM sodium phosphate, pH 6.4
The above described substrate is dissolved in DMSO, then diluted 10 fold in assay buffer. Final substrate concentration in the assay is 80 μM.
The final concentration of DMSO is 14% and the final concentration of glycerol is 18%. The test compound is dissolved in DMSO and diluted in DMSO to 10× the test concentration; 10 μl of the enzyme preparation is added, the materials mixed and then the mixture is incubated at ambient temperature for 15 minutes. The enzyme reaction is initiated by the addition of 40μl of substrate. The increase in fluorescence is monitored at 4 time points (0, 8, 16 and 24 minutes) at ambient temperature. Each assay is carried out in duplicate wells.

Regarding `COc1ccc(S(=O)(=O)N(CC(C)C)CC(O)C(Cc2ccccc2)NC(=O)c2ccccc2C)cc1` (stereo not shown) [Table 5A Entry 26], the IC50 was 5 nM.

A word on the IC50: it is the concentration that inhibits the measured activity by half. The low end stands for inhibition by little substance, the high end for a need for much substance.
